# PubChem BioAssay (EPA / NIEHS)
# Sequences of proteins named here, by UniProt entry; tags and fusion partners are left off.
# UniProt P03372, whole entry, looked up: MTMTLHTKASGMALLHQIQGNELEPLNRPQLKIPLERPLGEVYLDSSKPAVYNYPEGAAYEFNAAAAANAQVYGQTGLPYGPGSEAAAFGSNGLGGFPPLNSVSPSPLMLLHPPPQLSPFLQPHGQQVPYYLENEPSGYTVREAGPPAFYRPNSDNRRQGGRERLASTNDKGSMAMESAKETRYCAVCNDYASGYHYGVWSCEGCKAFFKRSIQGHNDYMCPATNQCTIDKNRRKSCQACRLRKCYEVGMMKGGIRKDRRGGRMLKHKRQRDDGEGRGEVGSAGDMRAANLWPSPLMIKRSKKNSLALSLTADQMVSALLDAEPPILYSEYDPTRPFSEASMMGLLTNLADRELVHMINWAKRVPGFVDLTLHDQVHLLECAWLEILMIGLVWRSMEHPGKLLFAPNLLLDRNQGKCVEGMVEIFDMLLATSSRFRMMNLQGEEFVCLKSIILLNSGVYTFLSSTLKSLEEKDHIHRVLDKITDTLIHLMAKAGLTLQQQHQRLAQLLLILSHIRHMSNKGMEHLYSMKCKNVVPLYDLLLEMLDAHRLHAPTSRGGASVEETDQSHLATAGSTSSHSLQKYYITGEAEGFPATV
# Where “and” joins values, the source holds several entries; their conditions need not be identical. Equal values may be shown once. This is a selection; strong and weak results do not stand in their true shares. Results filed as inconclusive are left out. Where a structure was tested more than once in an assay, its records may differ in their call. Calls of active or inactive are those of the source. Rule for the calls, unless noted: active = hit-call score of the fitted dose curve at least 0.9, where 1 is the maximum; inactive = score below 0.9.
# Assays:
# [1] = CCTE_Shafer_MEA_dev_firing_rate_mean: CCTE's Neural Network Formation Assay for Mean Firing Rate, Shafer Lab (AID 2284031);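 for AC50: curve fitted for loss of firing so AC50 reflects decreased mean firing rate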
# Procedure, shortened: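 Developing rat cortical networks on MEA plates undergo 12-day compound exposure. Firing frequency, averaged across active electrodes, is integrated as area under the curve over four recording days, referenced to DMSO.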
# [2] = CCTE_Shafer_MEA_dev_per_burst_spike_percent: CCTE's Neural Network Formation Assay for Percent of Spikes in a Burst, Shafer Lab (AID 2284032)
# Procedure, shortened: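 Rat primary cortical neurons on 16-electrode MEA wells, dosed from plating day 0 for 12 days with renewal on DIV 5 and 9; spikes-in-bursts percentage averaged over bursting electrodes, collapsed as AUC across days 5, 7, 9, 12; loss direction versus DMSO.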
# [3] = CCTE_Shafer_MEA_dev_active_electrodes_number: CCTE's Neural Network Formation Assay for Number of Active Electrodes, Shafer Lab (AID 2284040; active = hit-call score of the fitted dose curve at least 0.9, where 1 is the maximum;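 for AC50: potency for loss of active electrodes versus DMSO so lower counts are hits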)
# Procedure, shortened: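 Rat cortical primary cultures, 1.5 x 10^5 cells/well, PEI-coated MEA, laminin drop. Continuous exposure DIV 0–12; full media/compound change DIV 5, 9. Readout: electrodes with mean firing ≥5 spikes/min; AUC across days; loss vs DMSO.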
# [4] = CCTE_Shafer_MEA_dev_burst_rate: CCTE's Neural Network Formation Assay for Burst Rate, Shafer Lab (AID 2284042)
# Procedure, shortened: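 Rat primary cortical cultures on PEI/laminin MEA; compound from plating, re-dosed at DIV 5, 9 media change. Single-electrode bursts/recording length, well mean of active electrodes; AUC over DIV 5–12 recordings; loss-of-signal vs DMSO.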
# [5] = CCTE_Shafer_MEA_dev_bursting_electrodes_number: CCTE's Neural Network Formation Assay for Number of Bursting Electrodes, Shafer Lab (AID 2284043; active = hit-call score of the fitted dose curve at least 0.9, where 1 is the maximum;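 for AC50: potency is for loss of bursting electrodes relative to DMSO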)
# Procedure, shortened: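 Primary rat cortical neurons plated on 16-electrode MEA wells, exposed from day 0 with compound renewed at DIV 5 and 9. Electrodes bursting ≥1 burst per 2 min counted on days 5, 7, 9 and 12; trapezoidal AUC across days, fitted for loss versus DMSO.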
# [6] = CCTE_Shafer_MEA_dev_per_burst_interspike_interval: CCTE's Neural Network Formation Assay for Burst Interspike Interval, Shafer Lab (AID 2284044);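 note: mean spike spacing inside bursts as AUC over recordings on days 5 7 9 12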;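 for AC50: potency for a decrease of within-burst interspike interval below DMSO level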
# Procedure, shortened: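 Neurons from rat cortex plated onto PEI-coated MEA wells with laminin […] at 1.5 x 10^5 cells/well, then treated from day 0. Media and compound fully replaced on DIV 5 and 9. Extracellular spontaneous firing recorded four times; interspike interval per burst summarised as AUC.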
# [7] = CCTE_Shafer_MEA_dev_burst_duration_mean: CCTE's Neural Network Formation Assay for Mean Burst Duration, Shafer Lab (AID 2284045);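 for AC50: curve fitted for loss meaning shorter burst duration than DMSO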
# Procedure, shortened: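 Primary rat cortical neurons on 48-well 16-electrode MEA plates, exposed from day 0 with renewal at DIV 5 and 9; spontaneous activity recorded on days 5, 7, 9, 12. Well-mean burst duration across bursting electrodes, collapsed as trapezoidal AUC; DMSO baseline.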
# [8] = CCTE_Shafer_MEA_dev_interburst_interval_mean: CCTE's Neural Network Formation Assay for Mean Interburst Interval, Shafer Lab (AID 2284046);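 note: well-mean interburst interval of bursting electrodes as AUC over four recording days; curve fitted for decrease in interburst interval relative to DMSO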
# Procedure, shortened: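 Rat cortical neurons, 1.5 x 10^5 cells/well, 48-well MEA; compound from day 0 through DIV 12, media and treatment renewed DIV 5/9. Recordings DIV 5, 7, 9, 12; well-mean interburst interval → trapezoidal AUC, loss direction vs DMSO.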
# [9] = CCTE_Shafer_MEA_dev_inter_network_spike_interval_mean: CCTE's Neural Network Formation Assay for Mean Inter-network Spike Interval, Shafer Lab (AID 2284047)
# Procedure, shortened: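 Primary rat cortical neurons on PEI-coated 48-well MEAs (16 electrodes/well) were exposed from plating day 0 to DIV 12, with dosing renewed at DIV 5 and 9. Recordings at DIV 5, 7, 9, 12 were collapsed by trapezoidal AUC, loss-of-signal fit vs DMSO.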
# [10] = CCTE_Shafer_MEA_acute_burst_percentage_std: CCTE's Neural Acute Assay for Standard Deviation of Burst Percentage, Shafer Lab (AID 2284018);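 note: fitted in the negative direction so actives lower burst percentage SD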
# Procedure, shortened: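 Rat primary cortical neurons on 48-well MEAs, DIV 13 or 15, 37 C. 40-min baseline then 40-min recording with compound (0.03-40 uM); well-level SD of per-electrode burst spike percentage, expressed as percent change from baseline.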
# [11] = CCTE_Shafer_MEA_acute_per_network_burst_spike_number_mean: CCTE's Neural Acute Assay for Average Number of Spikes in a Network Burst, Shafer Lab (AID 2284019);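 for AC50: curve fitted for loss of signal so actives reduce spikes per network burst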
# Procedure, shortened: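 Rat primary cortical neurons on 48-well MEA at DIV 13 or 15, 37 C; compounds 0.03-40 uM, at least three wells each. 40-min baseline then 40-min exposure recording; percent change in mean spikes per network burst.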
# [12] = CCTE_Shafer_MEA_acute_per_network_burst_spike_number_std: CCTE's Neural Acute Assay for Standard Deviation of Number of Spikes in a Network Burst, Shafer Lab (AID 2284020);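 note: fitted for decrease in spike-number SD versus DMSO so actives lower it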
# Procedure, shortened: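 Rat primary cortical neurons on 48-well MEA (16 electrodes/well), treated DIV 13 or 15 at 0.03-40 uM, ≥3 wells per compound. 40 min recordings at 37 C before and after dosing; value is percent change in network-burst spike-number SD, negative direction vs DMSO.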
# [13] = CCTE_Shafer_MEA_acute_per_network_burst_electrodes_number_mean: CCTE's Neural Acute Assay for Mean Number of Electrodes in a Network Burst, Shafer Lab (AID 2284021);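 note: curves fitted for decreases only so hits reduce electrodes per burst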
# Procedure, shortened: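 Primary rat cortical networks, mwMEA, 37 C. 20 min stabilization, 40 min baseline, compound 0.03-40 uM, 40 min re-record. Wells need >=10 active electrodes; percent change per well, negative fitting direction.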
# [14] = CCTE_Shafer_MEA_acute_network_burst_percentage: CCTE's Neural Acute Assay for Percentage of Network Bursts, Shafer Lab (AID 2284022);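 note: curves fitted for loss so actives lower network burst percentage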
# Procedure, shortened: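 Readout is the fraction of spikes falling in network bursts, expressed as per-well percent change from a 40-min pre-exposure baseline. Primary rat cortical neurons on MEA were exposed to 0.03-40 uM compound on DIV 13 or 15 and recorded for 40 min at 37 C.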
# [15] = CCTE_Shafer_MEA_acute_cross_correlation_area: CCTE's Neural Acute Assay for Area of Cross Correlation, Shafer Lab (AID 2284024);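 note: area under pooled inter-electrode spike cross-correlation near zero lag as percent change from own baseline; curves fitted for loss of cross-correlation area so actives lower synchrony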
# Procedure, shortened: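 Plates equilibrated 20 min at 37 C, then 40 min baseline was recorded, compound was added (0.03-40 uM), and a further 40 min was recorded. Wells needed ≥10 active electrodes (≥5 spikes/min) on exposure day.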
# [16] = CCTE_Shafer_MEA_acute_cross_correlation_HWHM: CCTE's Neural Acute Assay for Cross Correlation at Half Width at Half Maximum, Shafer Lab (AID 2284026);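 note: percent change per well from pre-dose baseline in spike cross-correlogram half width; hits are a decrease in cross-correlogram half width relative to DMSO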;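 for outcome: spontaneous network firing of rat primary cortical neurons on multiwell microelectrode arrays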
# Procedure, shortened: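 Rat cortical neuron cultures on microelectrode arrays were equilibrated 20 min at 37 C, recorded 40 min at baseline, then 40 min after compound addition (0.03-40 uM, ≥3 wells). Spikes were detected at 8x rms noise after 300-5000 Hz band-pass filtering.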
# [17] = CCTE_Shafer_MEA_acute_synchrony_index: CCTE's Neural Acute Assay for Synchrony, Shafer Lab (AID 2284027);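 note: network synchrony index of spontaneous spiking in primary rat cortical neurons on MEAs; fitted for loss of signal so actives lower synchrony relative to DMSO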
# Procedure, shortened: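 Spontaneous firing of mature rat cortical networks is captured extracellularly on microelectrode arrays at 37 C, with wells needing ≥10 active electrodes. Each compound (0.03-40 uM) is judged by the change in synchrony index from baseline over 40 min.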
# [18] = target: Estrogen receptor (Homo sapiens) (UniProt P03372); assay: CCTE_Deisenroth_AIME_384WELL_LUC_Active: CCTE's 384-well Estrogen Receptor Transactivation Assay with AIME metabolic competence (ERTA luciferase; metabolism positive), Deisenroth Lab (AID 2284030; active = hit-call score of the fitted dose curve at least 0.9, where 1 is the maximum)
# Procedure, shortened: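 AIME metabolism-positive mode: chemicals 0.002 - 200 uM, 2 h with alginate-bound PB/BNF-induced rat S9 → medium to VM7Luc4E2 ERTA, 24 h → luciferase. Positive fit vs 17beta-estradiol; n=4 typical.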
# [19] = target: Estrogen receptor (Homo sapiens) (UniProt P03372); assay: CCTE_Deisenroth_AIME_384WELL_LUC_Inactive: CCTE's 384-well Estrogen Receptor Transactivation Assay without AIME metabolic competence (ERTA luciferase; metabolism negative), Deisenroth Lab (AID 2284038; active = hit-call score of the fitted dose curve at least 0.9, where 1 is the maximum;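 note: VM7Luc4E2 breast cells given medium preincubated 2 h with S9-free microspheres; hits raise estrogen receptor luciferase signal so potencies reflect agonists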)
# Procedure, shortened: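 Chemicals (10-point series, 0.002 - 200 uM) were incubated 2 hours with alginate-water microsphere lids lacking S9, then the conditioned medium was transferred to VM7Luc4E2 breast cells for 24 hour. Luciferase induction was read by bioluminescence, fitted upward relative to 17beta-estradiol.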
# [20] = target: Estrogen receptor (Homo sapiens) (UniProt P03372); assay: CCTE_Deisenroth_AIME_384WELL_LUC_Shift: CCTE's 384-well Estrogen Receptor Transactivation Assay with AIME metabolic competence data shift (ERTA luciferase; difference in metabolism positive and negative), Deisenroth Lab (AID 2284041);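 note: shift is response with S9 minus without S9 so positive means metabolism raised ER signal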
# Procedure, shortened: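 Chemicals (0.002–200 uM, 10 points) pre-incubated 2 h with alginate-encapsulated induced male Sprague Dawley rat liver S9 or S9-free, then medium applied 24 h to VM7Luc4E2 cells; luciferase. Endpoint is per-concentration difference, S9-positive minus negative.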
compound,measurement,setting,value
CC(C)OP(=O)(OC(C)C)SCCNS(=O)(=O)c1ccccc1,AC50,[1],active: 30.3 µM
same,outcome,[2],inactive
same,outcome,[3],inactive
same,outcome,[4],inactive
same,outcome,[5],inactive
same,outcome,[6],inactive
same,outcome,[7],inactive
same,outcome,[8],inactive
same,outcome,[9],inactive
CC(C)OP(=S)(OC(C)C)SCCNS(=O)(=O)c1ccccc1,outcome,[10],inactive
same,outcome,[11],inactive
same,outcome,[12],inactive
same,outcome,[13],inactive
same,outcome,[14],inactive
same,outcome,[15],inactive
same,AC50,[16],active: 20 µM
same,AC50,[17],active: 31.9 µM
same,AC50,[1],active: 16.9 µM and active: 13.8 µM
same,AC50,[3],active: 34.5 µM and active: 12.5 µM
same,AC50,[5],active: 25.8 µM and active: 13.3 µM
same,AC50,[6],active: 18.7 µM and active: 8.61 µM
same,AC50,[7],active: 12.3 µM
same,outcome,[7],inactive
same,AC50,[8],active: 24.2 µM and active: 8.4 µM
same,outcome,[9],inactive
O=C1C2CC=CCC2C(=O)N1SC(Cl)(Cl)C(Cl)Cl (configuration not stated),outcome,[10],inactive
same,outcome,[11],inactive
same,outcome,[12],inactive
same,outcome,[13],inactive
same,outcome,[15],inactive
same,outcome,[16],inactive
same,outcome,[17],inactive
ClP(Cl)c1ccccc1,outcome,[18],inactive
same,outcome,[19],inactive
same,outcome,[20],inactive
CN(C(=O)Cc1cccc2occc12)[C@H]1CC[C@@]2(CCCO2)C[C@@H]1N1CCCC1,outcome,[10],inactive
same,AC50,[11],active: 0.274 µM
same,AC50,[12],active: 5.14 µM
same,AC50,[13],active: 36.1 µM
same,AC50,[14],active: 30.5 µM
same,outcome,[15],inactive
same,AC50,[16],active: 7.38 µM
same,AC50,[17],active: 32.8 µM
same,outcome,[1],inactive
same,outcome,[2],inactive
same,AC50,[3],active: 16.6 µM
same,outcome,[4],inactive
same,AC50,[5],active: 15 µM
same,outcome,[6],inactive
same,outcome,[7],inactive
same,outcome,[8],inactive
same,outcome,[9],inactive
